From PubChem BioAssay AID2025 (NMMLSC, 2009) come the findings set out here.

This is a selection; strong and weak results do not stand in their true shares. Calls of active or inactive are those of the source.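 How the source made its calls: active means percent response vs DMSO below 50%; inconclusive means fewer than 70 events counted for the yeast strain; inactive means the rest.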

The assay in a line: RPL19A-GFP expression modulators in yeast, primary screen, cell-based, S. cerevisiae, multiplex flow cytometry, MLPCN (AID 2025).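 Further: median channel GFP fluorescence of the barcoded RPL19A-GFP strain; ratio of sample median GFP to plate DMSO average so 100% = DMSO; lower means less RPL19A-GFP as with rapamycin TOR inhibition.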 The settings on record: S. cerevisiae RPL19A-GFP strain, 3 h, at 10 µM, stronger effect = lower value. (In general: Flow cytometry measures light scatter and fluorescence of single cells or particles in a stream.)
Take `O=C(NCC1(N2CCCCC2)CCCCC1)c1ccc(Cl)s1`: the percent response vs DMSO was inactive: 97.7%.

Take `N#CC1(Nc2ccccc2)CCN(Cc2ccccc2)CC1`: the percent response vs DMSO is inactive: 102%.

As for `O=C(OC1CN2CCC1CC2)C1c2ccccc2Oc2ccccc21` (stereo not given), the percent response vs DMSO was inactive: 102%.

`COc1ccc(Cl)cc1C(=O)NCC1(N2CCOCC2)CCCCC1`: the percent response vs DMSO is inactive: 96.2%.

For the compound `CCOC(=O)N1CCC(Nc2ccc(OC)cc2)CC1`, the percent response vs DMSO was inactive: 108%.

For `O=C(NCC1(N2CCCCC2)CCCCC1)c1ccc(Cl)nc1`, the percent response vs DMSO is inactive: 93%.

For `Cc1cc(C)cc(N(C(=O)c2ccccc2)C2CCN(C(=O)OC(C)(C)C)CC2)c1`, the percent response vs DMSO is inactive: 103%.

As to `O=C(NCC1(N2CCOCC2)CCCCC1)c1cc2ccccc2o1`, the percent response vs DMSO is inactive: 96.5%.

Take `CSc1ccccc1C(=O)NCC1(N2CCCCC2)CCCCC1`: the percent response vs DMSO is inactive: 106%.

Turning to `COc1ccc(C(=O)NCC2(N3CCCCC3)CCCCC2)cc1`, the percent response vs DMSO was inactive: 100%.

`CC(C)(C)OC(=O)N1CCC(N(C(=O)c2ccccc2)c2ccc(F)cc2)CC1`: the percent response vs DMSO was inactive: 100%.

In the case of `COc1ccc(C(=O)NCC2(N3CCCCC3)CCCCC2)c(OC)c1OC`, the percent response vs DMSO was inactive: 103%.

Regarding `O=C(NCC1(N2CCCCC2)CCCCC1)c1ccc(=O)[nH]c1`, the percent response vs DMSO is inactive: 97.6%.

In the case of `O=C(NCC1(N2CCCCC2)CCCCC1)c1cccs1`, the percent response vs DMSO was inactive: 99%.

`CCOC(=O)N1CCC(Nc2cccc(C)c2)CC1`: the percent response vs DMSO was inactive: 107%.

Consider `COc1cc(C(=O)NCC2(N(C)C)CCCCC2)ccc1OC(F)F`, for which the percent response vs DMSO is inactive: 98.8%.

Regarding `Cc1ccc(OCC(C)C)c(CN(CCCl)CCCl)c1`, the percent response vs DMSO was inactive: 98.3%.

For the compound `O=C(NCC1(N2CCCCC2)CCCCC1)c1ccc(F)cc1`, the percent response vs DMSO was inactive: 103%.

Turning to `COc1ccc(NC2CCN(CCc3ccccc3)CC2)c(OC)c1`, the percent response vs DMSO was inactive: 101%.

For the compound `CCOC(=O)N1CCC(Nc2ccc(F)cc2)CC1`, the percent response vs DMSO was inactive: 102%.

Take `CCOc1ccc(C)cc1CN(CCCl)CCCl`: the percent response vs DMSO is inactive: 91%.

As to `COc1cc(C(=O)NCC2(N3CCCCC3)CCCCC2)ccc1OC(F)F`, the percent response vs DMSO was inactive: 97.5%.

Regarding `O=C(NCC1(N2CCOCC2)CCCCC1)c1cc(=O)[nH]c2ccccc12`, the percent response vs DMSO was inactive: 95.5%.

For `CN1CCN(CCOC(=O)C(O)(c2ccccc2)c2ccccc2)CC1`, the percent response vs DMSO was inactive: 105%.

Consider `COc1ccc(NC2CCN(C(=O)OC(C)(C)C)CC2)cc1`, for which the percent response vs DMSO is inactive: 103%.

For `O=C(NCC1(N2CCCCC2)CCCCC1)c1cccc(C(F)(F)F)c1`, the percent response vs DMSO is inactive: 104%.

Regarding `CCN1CCC(Nc2ccc(Cl)cc2)CC1`, the percent response vs DMSO is inactive: 100%.

With `N#CC1(Nc2ccccc2)CCN(CCc2ccccc2)CC1`, the percent response vs DMSO was inactive: 102%.

As for `O=C(NCC1(N2CCCCC2)CCCCC1)c1cccc([N+](=O)[O-])c1`, the percent response vs DMSO was inactive: 110%.

For `O=C(NCC1(N2CCCCC2)CCCCC1)c1ccc(OC(F)F)cc1`, the percent response vs DMSO was inactive: 101%.

On to `CCCOc1ccc(C(=O)NCC2(N(C)C)CCCCC2)cc1OC`, for which the percent response vs DMSO is inactive: 92.9%.

With `CN1CCC(Nc2cccc(F)c2)CC1`, the percent response vs DMSO was inactive: 106%.

For `O=C(NCC1(N2CCCCC2)CCCCC1)c1cncc(Br)c1`, the percent response vs DMSO was inactive: 107%.

`COc1cc(OC)c(C(=O)NCC2(N(C)C)CCCCC2)cc1OC`: the percent response vs DMSO was inactive: 101%.

As for `O=C(NCC1(N2CCOCC2)CCCCC1)c1cc(F)c(F)cc1Cl`, the percent response vs DMSO was inactive: 95.2%.

With `CC(C)c1ccc(NC2CCN(C(=O)OC(C)(C)C)CC2)cc1`, the percent response vs DMSO was inactive: 95.2%.

As for `COc1ccc(CN(CCCl)CCCl)cc1Cl`, the percent response vs DMSO was inactive: 95.5%.

As to `CN(C)c1cccc(C(=O)NCC2(N3CCCCC3)CCCCC2)c1`, the percent response vs DMSO was inactive: 103%.

In the case of `CCc1cc(C(=O)NCC2(N3CCCCC3)CCCCC2)sc1C`, the percent response vs DMSO was inactive: 90.4%.

As for `O=C(OC1CN2CCC1CC2)C1c2ccccc2C=Cc2ccccc21` (stereo not given), the percent response vs DMSO was inactive: 102%.

Turning to `CCOC(=O)N1CCC(Nc2ccc(C)cc2)CC1`, the percent response vs DMSO was inactive: 91.3%.

For the compound `COc1ccc(C(=O)NCC2(N3CCOCC3)CCCCC2)cc1OC`, the percent response vs DMSO was inactive: 93%.

For the compound `COc1cc(C(=O)NCC2(N3CCOCC3)CCCCC2)cc(OC)c1C`, the percent response vs DMSO was inactive: 100%.

As for `O=C(NCC1(N2CCOCC2)CCCCC1)c1cc(Br)ccc1Cl`, the percent response vs DMSO is inactive: 97.2%.

Take `CN(C)C1(CNC(=O)c2cccc(C#N)c2)CCCCC1`: the percent response vs DMSO was inactive: 105%.

Take `c1ccc(CN2CCC(Nc3ccccc3)CC2)cc1`: the percent response vs DMSO was inactive: 98.8%.

Regarding `CCCN1CCC(Nc2cc(OC)cc(OC)c2)CC1`, the percent response vs DMSO was inactive: 103%.

For `N#Cc1ccc(C(=O)NCC2(N3CCCCC3)CCCCC2)cc1`, the percent response vs DMSO was inactive: 104%.

Consider `CC(C)(C)OC(=O)N1CCC(N(C(=O)c2ccccc2)c2ccc(Cl)cc2)CC1`, for which the percent response vs DMSO was inactive: 106%.

On to `O=C(NCC1(N2CCCCC2)CCCCC1)c1ccco1`, for which the percent response vs DMSO is inactive: 99.3%.

Consider `CN(C)c1ccc(C(=O)NCC2(N3CCCCC3)CCCCC2)cc1`, for which the percent response vs DMSO was inactive: 97%.

`CCN1CCC(Nc2cccc(F)c2)CC1`: the percent response vs DMSO was inactive: 97.2%.

As to `Cc1ccc(C(=O)NCC2(N3CCCCC3)CCCCC2)o1`, the percent response vs DMSO was inactive: 97%.

For the compound `Fc1ccccc1NC1CCN(Cc2ccccc2)CC1`, the percent response vs DMSO is inactive: 98.4%.

For `COc1cc(OC)cc(C(=O)NCC2(N3CCCCC3)CCCCC2)c1`, the percent response vs DMSO was inactive: 101%.

With `CN1CCC(Nc2ccc(Cl)cc2)CC1`, the percent response vs DMSO was inactive: 101%.

Turning to `CCCOc1ccc(C)cc1CN(CCCl)CCCl`, the percent response vs DMSO was inactive: 93.3%.

For the compound `COc1cc(OC)cc(C(=O)NCC2(N3CCOCC3)CCCCC2)c1`, the percent response vs DMSO was inactive: 100%.

`COc1cccc(C(=O)N(c2cc(C)cc(C)c2)C2CCN(C(=O)OC(C)(C)C)CC2)c1`: the percent response vs DMSO is inactive: 102%.

Consider `CCC(CO)(C(=O)OC1CN2CCC1CC2)c1ccccc1` (stereo not given), for which the percent response vs DMSO is inactive: 101%.

Turning to `CC(C)(C)OC(=O)N1CCC(Nc2ccccc2)CC1`, the percent response vs DMSO is inactive: 98.2%.

As for `O=C(O)C1(Nc2ccccc2)CCN(Cc2ccccc2)CC1`, the percent response vs DMSO was inactive: 95.6%.

As to `CCCOc1ccc(C(=O)NCC2(N(C)C)CCCCC2)cc1`, the percent response vs DMSO is inactive: 106%.

Regarding `CCOc1ncccc1C(=O)NCC1(N2CCOCC2)CCCCC1`, the percent response vs DMSO was inactive: 100%.

For the compound `CN1CCC(Nc2ccc(F)c(Cl)c2)CC1`, the percent response vs DMSO is inactive: 108%.
